From publication doi:10.1101/2022.02.11.480038 come the findings set out here.

The experiment addresses Human LC3B (residues 1-120) (human) (UniProt Q9GZQ8). Put plainly: ITC. A general note: ITC needs no label: the signal is the heat of the interaction.

In turn, TEX264 269-278 S271A,S272A registered a Kd of 46 µM.

The Kd is a measure of binding affinity in units of concentration.
